Reference: ChEMBL document CHEMBL4177521, “Therapeutic Potential of Fatty Acid Amide Hydrolase, Monoacylglycerol Lipase, and N-Acylethanolamine Acid Amidase Inhibitors” (J Med Chem, 2017)

Target: T1, N-acylethanolamine-hydrolyzing acid amidase (Homo sapiens, UniProt Q02083)
T1 sequence (Q02083 whole entry): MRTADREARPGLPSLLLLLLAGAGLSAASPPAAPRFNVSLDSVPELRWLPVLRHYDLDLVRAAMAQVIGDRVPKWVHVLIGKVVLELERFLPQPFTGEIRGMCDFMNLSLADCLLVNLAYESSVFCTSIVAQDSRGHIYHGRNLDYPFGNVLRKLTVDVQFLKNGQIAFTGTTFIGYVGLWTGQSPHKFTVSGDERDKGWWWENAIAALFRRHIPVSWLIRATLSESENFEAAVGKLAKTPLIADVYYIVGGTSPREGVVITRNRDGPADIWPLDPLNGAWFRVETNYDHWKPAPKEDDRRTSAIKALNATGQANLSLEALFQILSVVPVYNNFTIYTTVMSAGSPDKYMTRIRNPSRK
Experiment: Inhibition of recombinant human NAAA expressed in HEK293 cells preincubated for 10 mins followed by PAMCA substrate addition after 30 mins by fluorescence assay
Format: cell-based

## CC(C)[C@@H]1OC(=O)[C@@H]1NC(=O)OCCCCCc1ccccc1
  IC50: 63 nM
